# Biological target: T1, Acetylcholinesterase (Rattus norvegicus, UniProt P37136)
# T1 sequence (P37136 whole entry): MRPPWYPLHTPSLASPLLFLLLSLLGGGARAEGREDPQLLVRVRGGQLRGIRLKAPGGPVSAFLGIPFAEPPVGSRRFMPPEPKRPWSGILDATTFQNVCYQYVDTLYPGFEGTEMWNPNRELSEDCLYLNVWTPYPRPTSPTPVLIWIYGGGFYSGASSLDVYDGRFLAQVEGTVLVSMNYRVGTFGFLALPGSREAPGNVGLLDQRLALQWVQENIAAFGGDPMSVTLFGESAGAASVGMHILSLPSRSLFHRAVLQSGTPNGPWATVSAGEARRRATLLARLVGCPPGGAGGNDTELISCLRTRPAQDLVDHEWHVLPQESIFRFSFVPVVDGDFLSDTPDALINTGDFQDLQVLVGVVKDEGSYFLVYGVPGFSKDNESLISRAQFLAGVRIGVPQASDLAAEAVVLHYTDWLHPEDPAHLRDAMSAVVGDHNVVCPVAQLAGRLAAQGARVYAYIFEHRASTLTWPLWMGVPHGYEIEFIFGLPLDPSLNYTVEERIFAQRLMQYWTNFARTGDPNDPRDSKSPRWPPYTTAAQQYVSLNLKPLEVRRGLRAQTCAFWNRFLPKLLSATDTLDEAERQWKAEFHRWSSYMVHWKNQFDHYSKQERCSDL
# Assay: Inhibitory concentration against rat brain acetylcholinesterase AChE
# Procedure, shortened: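 Adult Wistar rat cerebral cortex, stored frozen, homogenized 1:200 w/v in 25 mM phosphate pH 7.4, warmed 37 °C 5 min, spun 50000g 15 min at 4 °C; pellet resuspended as AChE-enriched fraction. Compound in PBS pH 7.4 with tritiated ACh (final 0.4 mM), 15 min at 37 °C; stopped with chloroacetic acid/NaCl/NaOH; ³H-acetate extracted into isoamyl alcohol/toluene, scintillation counted.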
row,SMILES,IC50 [nM]
1,CCN(CCCOc1ccc2c(=O)c3ccccc3oc2c1)Cc1cccc(OC(=O)NC)c1,4
2,CNC(=O)Oc1cccc(CN(C)CCCOc2ccc3c(=O)c4ccccc4oc3c2)c1 [XANTHOSTIGMINE],20
3,CCNC(=O)Oc1cccc(CN(C)CCCOc2ccc3c(=O)c4ccccc4oc3c2)c1,40

# Source: ChEMBL document CHEMBL1131132, “Acetylcholinesterase inhibitors: synthesis and structure-activity relationships of omega-[N-methyl-N-(3-alkylcarbamoyloxyphenyl)- methyl]aminoalkoxyheteroaryl derivatives” (J Med Chem, 1998)
